The numbers were not newly measured in US12043625B2, “Pyridine derivatives with c-linked cyclic substituents as cGAS inhibitors” (BOEHRINGER INGELHEIM INTERNATIONAL GMBH, priority 2021, dated 2024), which cites them from elsewhere.

Structures are written as SMILES.

The test system of this data set is cGAS. The following applies: cited from earlier work.

`O=C(N[C@H]1CCCC[C@H]1C(=O)O)c1cnn2c(O)cc(-c3ccccc3)nc12`: the “cellular activity as a cGAS inhibitor” value is “no acceptable cellular activity”.
